From publication PMC7911104 (2021)

Key:
Assay in all cases: SEC-MALS
[1] = target: T1, ActRIIA (ACVR2A) intracellular domain, residues 191-488 (Homo sapiens (Human), UniProt P27037)
T1 chain: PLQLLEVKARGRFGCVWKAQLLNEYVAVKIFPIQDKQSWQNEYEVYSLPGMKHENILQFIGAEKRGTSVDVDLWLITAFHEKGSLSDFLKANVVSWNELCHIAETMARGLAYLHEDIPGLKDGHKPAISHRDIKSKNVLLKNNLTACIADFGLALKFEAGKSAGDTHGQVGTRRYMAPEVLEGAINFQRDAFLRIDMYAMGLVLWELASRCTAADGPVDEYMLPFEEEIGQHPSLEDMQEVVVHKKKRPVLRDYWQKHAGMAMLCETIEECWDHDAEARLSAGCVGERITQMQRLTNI

[2] = target: T2, ALK5 (TGFBR1) intracellular domain, residues 162-503 (Homo sapiens (Human), UniProt P36897)
T2 chain: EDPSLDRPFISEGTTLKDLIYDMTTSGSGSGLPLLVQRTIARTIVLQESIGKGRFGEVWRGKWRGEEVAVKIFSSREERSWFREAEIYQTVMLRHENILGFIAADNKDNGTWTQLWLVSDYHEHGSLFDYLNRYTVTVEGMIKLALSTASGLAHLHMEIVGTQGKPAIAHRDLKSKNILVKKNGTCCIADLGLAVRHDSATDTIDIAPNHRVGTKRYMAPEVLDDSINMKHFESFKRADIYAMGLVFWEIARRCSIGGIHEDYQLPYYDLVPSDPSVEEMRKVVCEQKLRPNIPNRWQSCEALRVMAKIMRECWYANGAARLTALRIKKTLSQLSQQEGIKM

[3] = target: T3, ALK6 (BMPR1B) intracellular domain, residues 168-502 (Homo sapiens (Human), UniProt O00238)
T3 chain: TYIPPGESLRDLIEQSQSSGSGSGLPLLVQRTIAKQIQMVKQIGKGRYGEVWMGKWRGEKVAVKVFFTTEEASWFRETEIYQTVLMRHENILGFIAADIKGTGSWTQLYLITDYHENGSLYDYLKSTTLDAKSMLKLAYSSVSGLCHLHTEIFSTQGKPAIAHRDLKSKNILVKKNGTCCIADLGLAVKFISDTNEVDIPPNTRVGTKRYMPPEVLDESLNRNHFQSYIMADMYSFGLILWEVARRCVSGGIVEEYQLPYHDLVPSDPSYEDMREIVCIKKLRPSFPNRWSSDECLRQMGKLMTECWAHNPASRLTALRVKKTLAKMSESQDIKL

B1: FKBP12.6 (FKBP1B), full length, recombinant (protein)
chain: MGVEIETISPGDGRTFPKKGQTCVVHYTGMLQNGKKFDSSRDRNKPFKFRIGKQEVIKGFEEGAAQMSLGQRAKLTCTPDVAYGATGHPGVIPPNATLIFDVELLNLE
binding result [1]: no binding | binding result [2]: binds | binding result [3]: binds
